Reference: US20210156868A1, “COMPOSITIONS AND METHODS FOR DETECTING ALBUMIN” (Tournament BioVenture LLC, priority 2019, published 2021)

By UniProt entry, the sequences of proteins in these tests, tags left out. Residues count along the entry.
UniProt P02768, 25-609: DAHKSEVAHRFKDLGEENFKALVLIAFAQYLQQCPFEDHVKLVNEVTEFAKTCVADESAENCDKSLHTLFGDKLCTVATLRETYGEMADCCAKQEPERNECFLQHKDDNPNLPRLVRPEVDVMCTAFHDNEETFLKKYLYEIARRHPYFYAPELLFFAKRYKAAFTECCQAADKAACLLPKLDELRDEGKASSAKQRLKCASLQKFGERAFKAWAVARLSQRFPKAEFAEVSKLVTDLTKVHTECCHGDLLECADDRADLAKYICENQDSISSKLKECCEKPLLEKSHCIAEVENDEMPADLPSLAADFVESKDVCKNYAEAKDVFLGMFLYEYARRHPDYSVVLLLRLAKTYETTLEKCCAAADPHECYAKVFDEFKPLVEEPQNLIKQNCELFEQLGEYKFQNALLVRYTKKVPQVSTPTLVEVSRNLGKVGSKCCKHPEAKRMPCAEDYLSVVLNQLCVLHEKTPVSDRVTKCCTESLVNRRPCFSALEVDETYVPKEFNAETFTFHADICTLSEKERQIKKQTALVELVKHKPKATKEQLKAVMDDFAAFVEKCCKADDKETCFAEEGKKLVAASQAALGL

Target: HSA pseudo esterase activity (Homo sapiens, UniProt P02768)
Conditions: inhibitor 15-20 mM final concentration; 1.5 mM 14:0 NPS-PC, pH 7.4

Cl.NCCc1ccc(S(=O)(=O)F)cc1 [Pefabloc SC, 4-(2-aminoethyl)benzenesulfonyl fluoride hydrochloride]
albumin pseudo esterase activity maintained: > 90%
